These results are taken from patent publication US7919584.

For this test, the target named is GST-FLJ31349 PDZ domain fusion protein (human) [GST: P08515]. The test is described as follows: modified G assay, peptide titrated against a constant amount of immobilized GST-PDZ fusion; Hill fit.

On to “Tat-CLCA3 peptide (11 residues of Tat coupled to the C-terminal 9 amino acids of mCLCA3), biotinylated”, for which the EC50 came out at 0.6 µM.
